The results in this text go back to PubChem BioAssay AID651699 (Sanford-Burnham Center for Chemical Genomics, 2012).

Chains of the proteins cited; added tags and fusions are not shown.
UniProt P61081, whole entry, looked up: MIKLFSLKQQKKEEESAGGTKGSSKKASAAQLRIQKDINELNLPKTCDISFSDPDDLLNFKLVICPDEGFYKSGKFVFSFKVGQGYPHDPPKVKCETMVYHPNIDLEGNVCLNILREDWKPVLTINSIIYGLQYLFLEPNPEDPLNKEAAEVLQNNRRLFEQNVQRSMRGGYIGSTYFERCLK
UniProt Q13564, whole entry, looked up: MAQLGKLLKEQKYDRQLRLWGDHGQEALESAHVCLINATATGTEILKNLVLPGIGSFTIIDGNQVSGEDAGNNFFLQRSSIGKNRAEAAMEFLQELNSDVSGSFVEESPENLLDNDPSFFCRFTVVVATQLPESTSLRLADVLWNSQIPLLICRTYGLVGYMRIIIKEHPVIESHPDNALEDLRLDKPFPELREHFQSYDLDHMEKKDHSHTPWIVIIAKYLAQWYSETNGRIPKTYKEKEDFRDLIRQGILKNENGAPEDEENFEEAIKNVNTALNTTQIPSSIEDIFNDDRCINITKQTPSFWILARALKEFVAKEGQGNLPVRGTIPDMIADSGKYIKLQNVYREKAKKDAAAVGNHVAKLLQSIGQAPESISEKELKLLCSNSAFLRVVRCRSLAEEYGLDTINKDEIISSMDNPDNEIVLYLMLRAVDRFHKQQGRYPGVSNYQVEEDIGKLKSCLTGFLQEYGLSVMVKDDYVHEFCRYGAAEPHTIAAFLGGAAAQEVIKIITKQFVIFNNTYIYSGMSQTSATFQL

The entries are a selection whose mix differs from that of the whole data set. Some salts and complexes are drawn in separate pieces, as the source files them; their charges need not balance. Activity calls are given as the source filed them. No stated cut-off is given here; in the data, active means inhibition above about 36%; inactive means the rest.

For the test, the target named is NEDD8-conjugating enzyme Ubc12 (Homo sapiens) + NEDD8-activating enzyme E1 regulatory subunit (Homo sapiens) (UniProt P61081+Q13564). As to the kind of experiment: inhibitors of cullin neddylation, primary screen, biochemical, TR-FRET, uHTS, NAE and Ubc12 (AID 651699). The settings on record: at 25 µM, hits give high values.
For the compound `Cc1cc(-c2cccc3ccccc23)c(C)cn1.O=[N+]([O-])c1cc([N+](=O)[O-])c(O)c([N+](=O)[O-])c1`, the inhibition is inactive: -14.3%.

As for `Cc1c(C(c2ccc3c(c2)OCO3)c2c(C)n(C)n(-c3ccccc3)c2=O)c(=O)n(-c2ccccc2)n1C.O=[N+]([O-])c1cc([N+](=O)[O-])c(O)c([N+](=O)[O-])c1`, the inhibition is inactive: -5.7%.

In the case of `COc1ccc(OP(C)(=O)Nc2cccc(Br)c2)cc1` (stereo unspecified), the inhibition was inactive: 14%.

As to `CN(C)CCOC(=O)C(O)(c1ccccc1)C1CCCCC1` (stereo unspecified), the inhibition is inactive: 1.11%.

For the compound `COc1ccc(NP(C)(=O)Oc2ccccc2OC)cc1` (stereo unspecified), the inhibition is inactive: -5.48%.

For the compound `Cc1c([N+](=O)[O-])cc([N+](=O)[O-])c(Br)c1[N+](=O)[O-]`, the inhibition was inactive: -35.9%.

As to `CCN(CC)CCCOC(=O)C(O)(c1ccccc1)C1CCCCC1` (stereo unspecified), the inhibition was inactive: 4.22%.

`CP(=O)(Nc1ccccc1)Oc1ccc(F)cc1` (stereo unspecified): the inhibition is inactive: -10.4%.

On to `O=[N+]([O-])c1cc([N+](=O)[O-])c(OC2CCCCC2O)c([N+](=O)[O-])c1` (stereo unspecified), for which the inhibition was inactive: -33.9%.

As for `CCCCCOc1ccc(NP(C)(=O)Oc2ccc(Cl)cc2Cl)cc1` (stereo unspecified), the inhibition is inactive: 4.67%.

In the case of `CCN(CC)CCCNc1ccccc1[N+](=O)[O-].O=[N+]([O-])c1cc([N+](=O)[O-])c(O)c([N+](=O)[O-])c1`, the inhibition is inactive: -42.4%.

As for `CCOC(=O)c1ccc(NP(C)(=O)Oc2ccc(F)cc2)cc1` (stereo unspecified), the inhibition is inactive: -2.76%.

In the case of `COc1ccc(OP(C)(=O)Nc2ccc(SC(F)(F)F)cc2)cc1` (stereo unspecified), the inhibition was inactive: 4.14%.

Take `O=C(OC1CN2CCC1CC2)c1ccc([N+](=O)[O-])cc1` (stereo unspecified): the inhibition was inactive: -42.9%.

As to `O=C(OCCN1CCN(CCOCc2ccccc2)CC1)C(O)(c1ccccc1)c1ccccc1`, the inhibition was inactive: 1.06%.

On to `COc1ccc2c(c1O)-c1c(O)c(OC)cc3c1[C@H](C2)[N+](C)(C)CC3.O=[N+]([O-])c1cc([N+](=O)[O-])c([O-])c([N+](=O)[O-])c1[O-]`, for which the inhibition was inactive: 66.9%.

Regarding `O=[N+]([O-])c1cc([N+](=O)[O-])c(Nc2ccc(Cl)cc2)c([N+](=O)[O-])c1`, the inhibition was inactive: -76.8%.

Turning to `CP(=O)(Nc1ccccc1F)Oc1ccccc1` (stereo unspecified), the inhibition is inactive: -1.48%.

Consider `CC(C)c1ccc(OP(C)(=O)Nc2ccc(SC(F)(F)F)cc2)cc1` (stereo unspecified), for which the inhibition was inactive: -1.62%.

On to `Cc1c(NP(C)(=O)Oc2ccc(C(C)C)cc2)c(=O)n(-c2ccccc2)n1C` (stereo unspecified), for which the inhibition is inactive: -3.04%.

Regarding `O=[N+]([O-])c1cc([N+](=O)[O-])c(Nc2ccccn2)c([N+](=O)[O-])c1`, the inhibition was inactive: -45.2%.

For `COc1ccccc1OP(C)(=O)Nc1ccc(C)cc1C` (stereo unspecified), the inhibition was inactive: 5.29%.

As to `CP(=O)(Nc1ccccn1)Oc1ccccc1` (stereo unspecified), the inhibition is inactive: -3.37%.

As to `CCc1ccc(OP(C)(=O)O)cc1`, the inhibition is inactive: 1.89%.

In the case of `COc1ccccc1OP(C)(=O)Nc1ccc(Br)cc1` (stereo unspecified), the inhibition is inactive: -2.78%.

Take `COc1ccc(OP(C)(=O)Nc2ccccn2)cc1` (stereo unspecified): the inhibition was inactive: 0.83%.

As to `CN(C)CCOC(=O)C(O)(c1ccccc1)C1CCCC1` (stereo unspecified), the inhibition is inactive: -3.92%.

For the compound `CP(=O)(Nc1ccc(Cl)cc1Cl)Oc1ccccc1` (stereo unspecified), the inhibition was inactive: 7.04%.

With `CCCCCCCCCCCCCCCC1C[N+](C)(C)CCOP(C)(=O)O1` (stereo unspecified), the inhibition is inactive: 0.79%.

With `CP(=O)(OCCOc1ccccc1)OCCOc1ccccc1`, the inhibition is inactive: 3.04%.

Turning to `Cc1cc(C)cc(OP(C)(=O)Nc2cccc(C(F)(F)F)c2)c1` (stereo unspecified), the inhibition is inactive: 9.71%.

As to `O=C1C(O)=C([N+](=O)[O-])C(=O)C(O)=C1[N+](=O)[O-]`, the inhibition is inactive: -19.9%.

On to `COc1ccccc1OP(C)(=O)Nc1ccc(C)c(C)c1` (stereo unspecified), for which the inhibition is inactive: 3.48%.

Regarding `COc1ccc(OP(C)(=O)Nc2ccccc2Br)cc1` (stereo unspecified), the inhibition is inactive: 3.39%.

As to `CCOC(=O)c1ccc(NP(C)(=O)Oc2ccc(Cl)cc2)cc1` (stereo unspecified), the inhibition is inactive: 6.95%.

As to `CP(=O)(OC12CC3CC(CC(C3)C1)C2)OC12CC3CC(CC(C3)C1)C2`, the inhibition was inactive: -1.46%.

As for `COc1ccccc1OP(C)(=O)Nc1ccccc1Br` (stereo unspecified), the inhibition is inactive: -12.8%.

With `CC(C)(C)c1ccc(OP(C)(=O)O)cc1`, the inhibition is inactive: -4.41%.

`CP(=O)(Nc1ccc(Cl)cc1)Oc1ccc(F)cc1` (stereo unspecified): the inhibition is inactive: 8.4%.

In the case of `CN(C)C(=O)c1c([N+](=O)[O-])cc([N+](=O)[O-])cc1[N+](=O)[O-]`, the inhibition is inactive: -30.8%.

With `COc1ccc(OP(C)(=O)Nc2ccc(Br)cc2)cc1` (stereo unspecified), the inhibition is inactive: 3.5%.

In the case of `CCN(CC)CC(O)COC(=O)C(O)(c1ccccc1)C1CCCCC1` (stereo unspecified), the inhibition is inactive: 6.12%.

Take `O=C(OCCCN1CCCC1)C(O)(c1ccccc1)C1CCCCC1` (stereo unspecified): the inhibition was inactive: -2.45%.

On to `COc1ccccc1OP(C)(=O)Nc1c(C)n(C)n(-c2ccccc2)c1=O` (stereo unspecified), for which the inhibition is inactive: -1.08%.

Turning to `CCc1ccc(OP(C)(=O)Nc2cccnc2)cc1` (stereo unspecified), the inhibition was inactive: 0%.

For the compound `CP(=O)(Oc1ccccc1)N1CCOC1=O` (stereo unspecified), the inhibition is inactive: 7.08%.
